We go through four molecules from PMC8333062, “Chemical tools for epichaperome-mediated interactome dysfunctions of the central nervous system” (Nature Communications, 2021).

Series [1] concerns HSP90 pools in JNPL3 (AD transgenic) mouse brain lysate. As to the kind of experiment: Fluorescence polarization (FP) competitive binding, cy3B-GM. The settings on record: read-out: FP relative affinity; displacement of cy3B-GM, 24 h, 4 °C; mean±SD, n=3. Background: In fluorescence polarisation assays a small probe gives low polarisation when free and higher when bound to something large.

Another series in a line: PAMPA-BBB permeability. Conditions: porcine polar brain lipid, pH 7.4, 16 h; mean±SD, n=3. For orientation: PAMPA measures passive passage across an artificial lipid membrane.

pEC50: −log10 of the molar value. Only a part of the results on these compounds is given; other tests are left out.

Turning to `CC(C)(C)CNCCn1c(Cc2cc3c(cc2I)OCO3)nc2c(N)nc(F)nc21`, the pEC50 in series [1] was 8.11. The PAMPA-BBB in “PAMPA-BBB permeability” is on record as 13.1±0.3 10-6 cms-1.
Taken in the same sequence, the figures for `CC(C)CNCCn1c(Cc2cc3c(cc2I)OCO3)nc2c(N)nc(F)nc21` were 8.14 and 12.3±1.5 10-6 cms-1.
On the same counts, the results for `CC(C)(C)NCCn1c(Cc2cc3c(cc2I)OCO3)nc2c(N)nc(F)nc21` are 6.70 and 13.5±1.5 10-6 cms-1.
Taken in the same sequence, the figures for `CC(C)NCCn1c(Cc2cc3c(cc2I)OCO3)nc2c(N)nc(F)nc21` were 6.66 and 5.2±2.6 10-6 cms-1.
